# Results taken from patent US20110212091.
# System: FGFR4 R388, V5-His tagged (FGFR4R388-V5-His)
substance,measurement,value
HA-tagged MT1-MMP,FGFR4 R388 phosphorylation,markedly enhanced
